According to patent US20260242438A1, “INSULIN HYBRID PEPTIDE COMPRISING CHYMOTRYPSIN INHIBITORY PEPTIDE, AND USE THEREOF” (INSTITUTE OF MATERIA MEDICA, CHINESE ACADEMY OF MEDICAL …, priority 2022, published 2026):

Assays:
chymotrypsin [1] = target: T1, chymotrypsin (Bos taurus, UniProt P00766); assay: Determination of enzyme inhibitory activity against chymotrypsin (substrate AAPFpNA, OD 405 nm); format: biochemical; conditions: peptide 0.1 μM; read-out: Residual activity of chymotrypsin
Description: The substrates N-succinyl-Ala-Ala-Pro-Phe-p-nitroaniline (AAPFpNA) is used in competitive binding reaction to determine the inhibitory activities against α -chymotrypsin. Experiments for a-chymotrypsin was measured in 20 mM CaCl2, 50 mM Tris-HCl buffer (pH 7.8). The concentration of the peptide was measured using optical density (OD) at 280 nm. The Michaelis constant (Km) of the enzyme hydrolysis substrate is calculated from the initial rate of substrate hydrolysis at 405 nm. The absorbance value of the substrate was measured at 405 nm after complete hydrolysis. All data were processed using nonlinear regression.
(1) Added a total 190 μL of reaction buffer (20 mM CaCl2, 50 mM Tris-HCl (pH 7.8)), different concentrations of anti-chymorypsin peptides (CHs) into the pre-cold 96 well plate, followed by preheating at 37° C. for 5 min and centrifugated at 500 rpm for 1 min and allowed to stand for 4 minutes. Then added 8 μL of 750 nM chymotrypsin and incubated at 37° C. for 10 min, and centrifugated at 500 rpm for 1 min and allowed to stand for 9 minutes. Finally, added 2 μL of 50 mM AAPFpNA, and mixed by centrifugation at 500 rpm for 1 min. The plate was incubated at 37° C. for 90 min, and the absorbance value at 405 nm was measured. […]

chymotrypsin [2] = target: T1, chymotrypsin; assay: Stability of insulin and insulin hybrid peptides against chymotrypsin hydrolysis (RP-HPLC remaining peak area); format: in vitro ADME; conditions: peptide 60 μM, chymotrypsin 1.0 ng/μL, 37° C.
Description: Control test: […] Mix by centrifugation at 8000 rpm for 30 seconds.

| Molecule | remaining activity at 0.1 µM (chymotrypsin [1]) | Remaining peak area (%)/chymotrypsin (chymotrypsin [2]; 0.0 h) | Remaining peak area (%)/chymotrypsin (chymotrypsin [2]; 0.5 h) | Remaining peak area (%)/chymotrypsin (chymotrypsin [2]; 1.0 h) | Remaining peak area (%)/chymotrypsin (chymotrypsin [2]; 2.0 h) | Remaining peak area (%)/chymotrypsin (chymotrypsin [2]; 3.0 h) | Remaining peak area (%)/chymotrypsin (chymotrypsin [2]; 4.0 h) | Remaining peak area (%)/chymotrypsin (chymotrypsin [2]; 4.0 h, listed as human insulin) |
| --- | --- | --- | --- | --- | --- | --- | --- | --- |
| CC[C@H](C)[C@@H]1NC(=O)[C@@H]2CCCN2C(=O)[C@@H]2CCCN2C(=O)[C@H]([C@@H](C)CC)NC(=O)[C@H](CO)NC(=O)[C@H](Cc2ccc(O)cc2)NC(=O)[C@H]([C@@H](C)O)NC(=O)[C@@H](NC(=O)[C@H](CCCNC(=N)N)NC(=O)CN)CSSC[C@@H](C(=O)N[C@@H](Cc2ccccc2)C(=O)O)NC1=O [CH57] | 10.3 ± 1.7% | – | – | – | – | – | – | – |
| Insulin | – | 100.0 ± 0.0% | 70.7 ± 3.0% | 57.4 ± 2.3% | 36.5 ± 1.0% | 21.7 ± 2.1% | 10.3 ± 0.7% | about 10.3% |
